Values quoted from earlier work, collected in patent US20240180923A1, “METHODS OF TREATING DISORDERS WITH ULK INHIBITORS” (Deciphera Pharmaceuticals, LLC, priority 2022, published 2024).

Settings: cetuximab 500 mg/m^2 Q2W versus 250 mg/m^2 QW; cited from earlier work

cetuximab
Cmin at steady state, 500 mg/m^2 Q2W lower than 250 mg/m^2 QW: 23-25%
